Usually pIC50 stands for the negative decadic logarithm of the IC50, by convention in mol/L.

Chains of the proteins cited; added tags and fusions are not shown. Lines headed by an entry give the natural chain unless they say otherwise; changes in a name come on top.
UniProt Q61143: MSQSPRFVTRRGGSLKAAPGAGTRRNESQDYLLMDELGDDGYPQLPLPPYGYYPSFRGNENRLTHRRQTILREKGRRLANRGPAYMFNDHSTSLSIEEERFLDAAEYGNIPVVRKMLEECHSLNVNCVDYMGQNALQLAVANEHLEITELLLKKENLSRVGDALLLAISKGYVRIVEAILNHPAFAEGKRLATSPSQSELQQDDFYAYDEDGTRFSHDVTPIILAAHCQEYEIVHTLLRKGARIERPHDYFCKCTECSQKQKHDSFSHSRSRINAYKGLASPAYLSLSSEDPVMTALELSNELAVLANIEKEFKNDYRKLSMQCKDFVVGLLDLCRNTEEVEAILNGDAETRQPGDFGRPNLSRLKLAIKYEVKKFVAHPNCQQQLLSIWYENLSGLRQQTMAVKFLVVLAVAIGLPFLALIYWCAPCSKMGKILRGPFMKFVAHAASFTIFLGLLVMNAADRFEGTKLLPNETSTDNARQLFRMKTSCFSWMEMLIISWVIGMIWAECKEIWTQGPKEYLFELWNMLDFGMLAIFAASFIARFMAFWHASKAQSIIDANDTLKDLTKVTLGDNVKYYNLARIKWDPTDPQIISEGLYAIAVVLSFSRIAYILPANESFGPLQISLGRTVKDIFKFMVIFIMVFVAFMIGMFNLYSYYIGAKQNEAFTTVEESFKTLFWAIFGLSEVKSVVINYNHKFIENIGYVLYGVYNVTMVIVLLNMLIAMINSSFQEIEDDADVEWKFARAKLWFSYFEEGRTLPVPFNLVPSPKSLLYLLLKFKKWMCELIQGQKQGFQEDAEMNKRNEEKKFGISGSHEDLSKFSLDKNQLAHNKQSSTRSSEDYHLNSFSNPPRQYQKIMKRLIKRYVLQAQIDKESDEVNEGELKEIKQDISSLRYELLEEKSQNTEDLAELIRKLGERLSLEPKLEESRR

These results are taken from PubChem BioAssay AID2696 (Johns Hopkins Ion Channel Center, 2010).

In this test the target is Short transient receptor potential channel 6 (Mus musculus) (UniProt Q61143). In words: TRPC6 inhibitor potency, dose response, cell-based, mouse TRPC6, HEK293, membrane potential (AID 2696). Particulars: TRPC6-expressing cells, fluorescence ratio calcium influx.

pIC50: −log10 of the molar value.

As for `CN1CCCC(OC(=O)C(c2ccccc2)c2ccccc2)C1` (configuration not stated), the pIC50 was 4.40. With `O=[N+]([O-])c1ccc(O)c(/C=N/Nc2ccc([N+](=O)[O-])cc2[N+](=O)[O-])c1`, the pIC50 was 4.15.
